Data: US20210330661A1 (China Medical University, priority 2020, published 2021)

How the values were obtained:
[1] = target: T1, SARS-CoV-2 M^pro (Severe acute respiratory syndrome coronavirus 2, UniProt P0DTD1); experiment: FRET assay of SARS-CoV-2 Mpro activity with boceprevir or narlaprevir; assay type: biochemical
[2] = target: T1, SARS-CoV-2 M^pro; experiment: biochemical; assay type: binding

Structure (SMILES): CCCC[C@H](NC(=O)[C@@H]1[C@@H]2[C@H](CN1C(=O)[C@@H](NC(=O)NC1(CS(=O)(=O)C(C)(C)C)CCCCC1)C(C)(C)C)C2(C)C)C(=O)C(=O)NC1CC1 [narlaprevir]
- IC50 [1]: 40.8 ± 4.6 µM
- Kd [2]: 19 µM
